Where two headings read alike, the source gives them in different places.
Legend:
KPC-2 [1] = target: T1, KPC-2 (Klebsiella pneumoniae, UniProt Q9F663); conditions: read-out: Kiapp; cited from earlier work
KPC-4 [2] = target: T2, KPC-4 (Klebsiella pneumoniae, UniProt Q9F663, P103R/V239G); assay: IC50, nitrocefin hydrolysis after 10-minute preincubation, KPC-4; type: biochemical
KPC-3 [3] = target: T3, KPC-3 (Klebsiella pneumoniae, UniProt Q9F663, H272Y); assay: IC50, nitrocefin hydrolysis after 10-minute preincubation, KPC-3; type: biochemical
KPC-2 [4] = target: T1, KPC-2; assay: IC50, nitrocefin hydrolysis after 10-minute preincubation, KPC-2; type: biochemical
KPC-3 [5] = target: T3, KPC-3; assay: biochemical
KPC-4 [6] = target: T2, KPC-4; assay: biochemical
KPC-2 [7] = target: T1, KPC-2; assay: biochemical

Chains of the proteins cited; added tags and fusions are not shown. Residues count along the entry.
UniProt Q9F663, 25-293 limits assumed: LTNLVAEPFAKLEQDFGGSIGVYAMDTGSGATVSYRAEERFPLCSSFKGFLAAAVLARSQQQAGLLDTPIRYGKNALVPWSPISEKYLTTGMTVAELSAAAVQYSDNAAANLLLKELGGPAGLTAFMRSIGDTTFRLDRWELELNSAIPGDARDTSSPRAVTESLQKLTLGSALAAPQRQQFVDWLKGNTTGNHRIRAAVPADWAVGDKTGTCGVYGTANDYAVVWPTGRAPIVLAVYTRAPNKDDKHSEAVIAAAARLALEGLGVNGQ
UniProt Q9F663, 25-293 P103R/V239G: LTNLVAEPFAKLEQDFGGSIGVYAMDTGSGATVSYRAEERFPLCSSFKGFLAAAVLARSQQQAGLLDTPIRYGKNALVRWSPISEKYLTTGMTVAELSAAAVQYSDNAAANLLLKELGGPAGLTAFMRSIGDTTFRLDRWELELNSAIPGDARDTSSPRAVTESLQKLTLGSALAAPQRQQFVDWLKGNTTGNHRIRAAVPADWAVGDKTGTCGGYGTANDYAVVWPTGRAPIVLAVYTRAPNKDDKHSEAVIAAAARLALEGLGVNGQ
UniProt Q9F663, 25-293 H272Y: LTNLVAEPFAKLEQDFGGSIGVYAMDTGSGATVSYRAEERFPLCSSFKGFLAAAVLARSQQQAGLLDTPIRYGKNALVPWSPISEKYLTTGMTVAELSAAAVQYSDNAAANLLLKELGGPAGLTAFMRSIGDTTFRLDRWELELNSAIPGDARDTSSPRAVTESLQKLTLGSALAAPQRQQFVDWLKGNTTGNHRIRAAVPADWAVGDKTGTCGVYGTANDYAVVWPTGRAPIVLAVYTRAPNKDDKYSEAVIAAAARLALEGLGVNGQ

Compound: O=C(NC1CCNCC1)[C@@H]1CC[C@@H]2CN1C(=O)N2OS(=O)(=O)O [Relebactam, relebactam]
- Ki (KPC-2 [1]): 2300 nM
- IC50 (KPC-4 [2]): 910 nM
- IC50 (KPC-3 [3]): 260 nM
- IC50 (KPC-2 [4]): 230 nM
- Ki (KPC-3 [5]): 1500 nM
- Ki (KPC-4 [6]): 4800 nM
- Ki (KPC-2 [7]): 1200 nM
